From article PMC3828267 (PLoS ONE, 2013)

Protein sequences, listed by entry. Tags and fused reporters are not part of them. Residues count along the entry.
UniProt P17787, 26-502: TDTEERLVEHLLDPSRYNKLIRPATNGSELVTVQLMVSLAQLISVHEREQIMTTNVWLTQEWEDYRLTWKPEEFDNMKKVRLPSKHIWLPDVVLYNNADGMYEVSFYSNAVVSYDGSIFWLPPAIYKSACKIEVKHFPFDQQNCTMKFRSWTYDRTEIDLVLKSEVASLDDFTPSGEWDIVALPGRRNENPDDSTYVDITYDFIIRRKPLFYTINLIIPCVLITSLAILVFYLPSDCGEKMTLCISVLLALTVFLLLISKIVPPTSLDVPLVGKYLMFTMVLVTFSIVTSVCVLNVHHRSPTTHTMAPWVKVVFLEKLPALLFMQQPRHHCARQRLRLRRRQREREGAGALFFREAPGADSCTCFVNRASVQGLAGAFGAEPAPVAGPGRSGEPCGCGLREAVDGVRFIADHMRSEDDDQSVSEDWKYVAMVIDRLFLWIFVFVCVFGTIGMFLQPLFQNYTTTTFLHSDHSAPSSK
UniProt P43681, 29-627: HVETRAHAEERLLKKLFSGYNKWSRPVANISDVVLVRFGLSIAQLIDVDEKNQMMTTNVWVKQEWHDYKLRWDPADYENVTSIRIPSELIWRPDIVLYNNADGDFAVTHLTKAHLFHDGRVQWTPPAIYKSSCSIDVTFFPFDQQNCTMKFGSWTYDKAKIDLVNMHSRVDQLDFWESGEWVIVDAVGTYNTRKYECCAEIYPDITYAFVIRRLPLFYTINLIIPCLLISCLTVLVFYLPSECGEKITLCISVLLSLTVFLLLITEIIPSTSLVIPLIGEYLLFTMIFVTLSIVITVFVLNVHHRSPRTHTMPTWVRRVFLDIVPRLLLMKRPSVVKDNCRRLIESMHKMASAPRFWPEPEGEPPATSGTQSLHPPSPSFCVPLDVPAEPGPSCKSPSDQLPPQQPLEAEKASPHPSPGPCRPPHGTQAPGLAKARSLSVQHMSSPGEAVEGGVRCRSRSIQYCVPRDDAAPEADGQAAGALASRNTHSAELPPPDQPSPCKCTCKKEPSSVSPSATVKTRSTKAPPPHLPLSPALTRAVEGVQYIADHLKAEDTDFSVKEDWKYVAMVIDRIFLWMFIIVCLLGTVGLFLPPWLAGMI

Molecular target: T1, α4β2 AChRs (Homo sapiens, UniProt P17787+P43681)
T1 construct: expressed in transfected cells
Assay: Smoldering activation following acute desensitization, α4β2
Assay type: cell-based
Settings: α4β2, antagonist 1 µM applied after 10 minutes

Structure (SMILES): CO[C@H]1CC=C2CCN3CCC4=C(CC(=O)OC4)[C@]23C1 [DHβE, dihydroβerythroidine]
- Effect of antagonist on sustained agonist response: abrogated
